Assay results published in paper PMC8521618 (ACS Medicinal Chemistry Letters, 2021).

By UniProt entry, the sequences of proteins in these tests, tags left out. Residues count along the entry.
UniProt Q9BYW2, 1434-1711: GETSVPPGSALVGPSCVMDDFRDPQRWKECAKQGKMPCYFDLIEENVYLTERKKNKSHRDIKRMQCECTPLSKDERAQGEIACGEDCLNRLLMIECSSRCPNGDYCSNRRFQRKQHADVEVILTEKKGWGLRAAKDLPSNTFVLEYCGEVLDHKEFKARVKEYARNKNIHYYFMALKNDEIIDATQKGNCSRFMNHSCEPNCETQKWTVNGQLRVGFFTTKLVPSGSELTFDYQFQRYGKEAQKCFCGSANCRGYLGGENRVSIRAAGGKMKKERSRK

Target: SETD2 (1434-1711) (Homo sapiens, UniProt Q9BYW2)
Assay: biochemical

IC50: 22.1 µM
SMILES: Cc1cccc2cc(C(=O)N[C@H]3CC[C@H](NC(=O)CCN)CC3)[nH]c12 [Compound 2]
